Target: Cannabinoid receptor 1 (Homo sapiens) (UniProt P21554)
Assay: Positive allosteric modulation of CB1 receptor (unknown origin) expressed in HEK293T cell membranes assessed as increase in [3H]CP55,940 binding by liquid scintillation counting method
In short: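 Membranes from HEK293T cells transiently expressing CB1 (harvested 24 h post-transfection) incubated with 0.5 nM [3H]CP55,940 and at least nine modulator concentrations (100 pM–100 µM) in TME buffer pH 7.4 with 0.2% fatty acid-free BSA; nonspecific binding with 1 µM unlabeled CP55,940; filtration. KB and cooperativity α from nonlinear regression; duplicate, ≥3 experiments, 95% confidence limits.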

Chains of the proteins cited; added tags and fusions are not shown.
UniProt P21554, whole entry: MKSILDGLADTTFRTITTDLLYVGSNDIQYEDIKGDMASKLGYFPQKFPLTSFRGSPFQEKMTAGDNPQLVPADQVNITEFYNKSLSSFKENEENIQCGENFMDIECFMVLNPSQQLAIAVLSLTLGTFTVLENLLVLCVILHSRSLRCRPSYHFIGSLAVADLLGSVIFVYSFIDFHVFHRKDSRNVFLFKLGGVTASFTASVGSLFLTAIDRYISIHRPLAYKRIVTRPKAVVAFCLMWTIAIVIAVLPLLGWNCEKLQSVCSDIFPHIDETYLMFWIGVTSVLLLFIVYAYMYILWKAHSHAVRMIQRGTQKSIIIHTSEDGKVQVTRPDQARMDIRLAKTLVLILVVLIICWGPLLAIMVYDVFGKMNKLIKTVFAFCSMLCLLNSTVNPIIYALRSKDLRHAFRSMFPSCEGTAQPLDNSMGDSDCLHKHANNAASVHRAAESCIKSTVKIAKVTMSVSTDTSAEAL

Kb: 54.3 nM
Compound: O=C(Nc1ccc(Cl)cc1)Nc1cccc(-c2cccc(N3CCCC3)n2)c1
